# Laboratory results published in paper PMC4450067 (PLoS Pathogens, 2015).
# Tested on: G3BP-1 and G3BP-2
# Test: Co-immunoprecipitation with G3BP-1 antibody, detection of G3BP-2 (ternary complex) in BHK cells
# Assay type: binding
# Conditions: G3BP-1 IP, 16 h after transfection
substance,measurement,value
EGFP-USP10_1–40,G3BP-2 detected in G3BP-1 immunoprecipitate,not in EGFP-USP10_1–40 bound complexes
